Source: PubChem
ABCB6 inh MLPCN: human ABCB6 transporter inhibition; K562-ABCB6 porphyrin accumulation, flow cytometry, 1 h; stronger effect = lower value; fluorescence ratio to DMSO, % at 10 µM; 360,000 tested, 0.19% active;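 active = fluorescence ratio to DMSO below 75%, the collection mean minus 3 SD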;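 note: signal is porphyrin accumulated inside mitochondria; 100% equals median channel fluorescence of DMSO control wells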
pCIP destab: compounds decreasing mouse p/CIP protein stability. Q05BA5. F442A p/CIP-EGFP cells, EGFP fluorescence, 16 h. decrease of EGFP signal, % at 10 µM. 290,000 tested, 0.01% active. AID 1984;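 active = EGFP signal decrease of at least 30% at 10 µM or well 3 SD below plate mean, unless failing retest; inactive = the rest, including hits failing retest or dose response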
PKA-R1A activ: PKA-R1A complex activation; PKA-R1A dissociation, Cy5-IP20 fluorescence polarization; scaled: DMSO 0%, 113 µM cGMP 100%; activation, % at 11.4 µM; 340,000 tested, 0.083% active;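 active = percent activation above the mean of all tested compounds plus 3 SD, cut at about 19% in these data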;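 note: higher means more PKAc released from R1A so a rise in polarization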
PKA-R2B act: activators of human PKA-R2B complex; PKA-R2B holoenzyme dissociation, Cy5-IP20 fluorescence polarization; R2B truncated from residue 108, S112A mutant; 0% DMSO only, 100% 113 µM cGMP; AID 504700; 340,000 tested, 0.079% active; activation, % at 11.4 µM;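 active = activation above a cutoff set at the mean over all compounds plus 3 SD, cut at about 18% in these data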;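 note: higher means more holoenzyme dissociation and a rise in polarization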
Yeast UUG start: yeast start codon fidelity modulation; actives 0.13% (n = 350,000); activity score, % at 18.7 µM; S. cerevisiae UUG-firefly luciferase reporter, luminescence/redox ratio;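 active = replicate mean at a twofold rise or more, about +100% in these data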;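 note: firefly luciferase made from a UUG start codon reports start codon fidelity; reporter light over untreated wells divided by growth signal over untreated wells; some hits fall short of that in this replicate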
Exocytosis inh: lytic granule exocytosis inhibition; TALL-104 LAMP-1 surface exposure, flow cytometry; cells stimulated with thapsigargin and PMA; 360,000 tested, 0.66% active; AID 651702; inhibition, % at 10 µM;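 active = inhibition above about 55%, limit read from the data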
ABCB6 blocker 1: blocks the human ABCB6 transporter. 700 tested, under 10 active. K562-ABCB6 porphyrin accumulation, flow cytometry, 1 h; stronger effect = lower value. ratio response (% of DMSO), % at 10 µM. shares compounds with ABCB6 inh MLPCN;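 active = repeat-averaged ratio response below 75% of DMSO, the collection mean minus 3 SD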;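 note: median porphyrin fluorescence at 575 nm with 488 nm excitation from mitochondria; lower ratio means less porphyrin signal so ABCB6 inhibition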
The depositor's hits bear a star; · = no result. Sampled rows, rich in hits. Any-hit rate of the full collection: about 0.94%.

SMILES	ABCB6 inh MLPCN	pCIP destab	PKA-R1A activ	PKA-R2B act	Yeast UUG start	Exocytosis inh	ABCB6 blocker 1
CC1(C(=O)NS(=O)(=O)c2ccc(Cl)s2)CCN1C(=O)C1(c2ccc(Cl)cc2)CCC1 (stereo not drawn)	95.0	·	·	·	9.8	2.3	100.0
CC1(C(=O)NS(=O)(=O)c2cccs2)CCN1C(=O)C1(c2ccccc2)CCCC1 (stereo not drawn)	72.0*	·	·	·	0.6	-2.6	96.0
CC1(C(=O)NS(=O)(=O)c2ccccc2Cl)CCN1C(=O)C1(c2ccc(Cl)cc2)CC1 (stereo not drawn)	94.0	·	·	·	·	2.5	96.0
CCCC(=O)Nc1ccc2c(c1)C(=O)N(C)[C@H]1CC[C@@H](CC(=O)NCC3CCCCC3)O[C@@H]1CO2	·	·	·	·	26.1	·	·
CC(=O)Nc1ccc(OC(=O)c2c(-c3ccccc3Cl)noc2C)cc1	70.0*	-4.3	-9.4	-23.6	-11.5	4.5	99.0
CC(=O)Nc1ccc(NC(=O)c2c(-c3ccccc3Cl)noc2C)c(C)c1	95.0	16.8	0.8	11.3	-17.7	-1.1	·
C[C@@H]1CN([C@H](C)CO)C(=O)c2cccc(NC(=O)Nc3cccc4ccccc34)c2O[C@H]1CN(C)C(=O)Nc1cccc2ccccc12	·	·	·	·	-1.4	·	·
O=C(NCc1ccccc1Cl)C1CCN(S(=O)(=O)N2CCC3(CC2)OCCO3)CC1	95.0	-6.4	-9.0	-2.1	·	-0.3	·
O=C(NCc1ccc(F)cc1Cl)C1CCN(S(=O)(=O)N2CCC3(CC2)OCCO3)CC1	69.0*	-8.1	0.2	-3.7	5.4	-5.8	96.0
COc1ccccc1S(=O)(=O)N[C@H]1CC[C@H](CCNC(=O)C2CC2)O[C@@H]1CO	·	·	·	·	-3.8	·	·
O=C(CSc1nnc2c(Cl)cc(C(F)(F)F)cn12)N(Cc1ccccc1)Cc1ccccc1	74.0*	-6.7	-8.6	-11.5	·	0.9	97.0
C[C@H](NC(=O)Nc1ccccc1F)C(=O)O	97.0	1.5	-3.3	1.1	-19.0	-0.5	·
CC(C)C[C@H](NC(=O)Nc1ccccc1F)C(=O)O	45.0*	-6.6	2.1	-7.3	-10.2	-0.7	98.0
CC1=CC(C)(C)N2C(=O)C3(C(C#N)=C(N)Oc4cc(C)oc(=O)c43)c3cc(C)cc1c32 (stereo not drawn)	67.0*	·	-4.6	8.8	-9.4	6.6	96.0
CCOC(=O)C1(C(F)(F)F)N=C(C(F)(F)F)Nc2ccc(F)cc21 (stereo not drawn)	59.0*	-17.2	-11.2	-6.9	·	0.3	103.0

A draw from above in order of molar mass, largest number first.
SMILES	ABCB6 inh MLPCN	pCIP destab	PKA-R1A activ	PKA-R2B act	Yeast UUG start	Exocytosis inh	ABCB6 blocker 1
O=C(NCc1ccc(F)cc1Cl)C1CCN(S(=O)(=O)N2CCC3(CC2)OCCO3)CC1	69.0*	-8.1	0.2	-3.7	5.4	-5.8	96.0
O=C(NCc1ccccc1Cl)C1CCN(S(=O)(=O)N2CCC3(CC2)OCCO3)CC1	95.0	-6.4	-9.0	-2.1	·	-0.3	·
CCOC(=O)C1(C(F)(F)F)N=C(C(F)(F)F)Nc2ccc(F)cc21 (stereo not drawn)	59.0*	-17.2	-11.2	-6.9	·	0.3	103.0

(cont.)
SMILES	ABCB6 inh MLPCN	pCIP destab	PKA-R1A activ	PKA-R2B act	Yeast UUG start	Exocytosis inh	ABCB6 blocker 1
CCOC(=O)C(NC(=O)Nc1ccc(F)cc1)(OCC)C(F)(F)F (stereo not drawn)	88.0	-3.6	-7.7	-13.9	-8.5	0.6	·
O=S(=O)(N[C@H]1CC[C@H](CCn2cc(-c3cccc(F)c3)nn2)O[C@H]1CO)c1ccc(Cl)cc1	·	·	·	·	-1.4	·	·
CCOC(=O)[C@H]1[C@H]2COc3cc(OC)ccc3[C@@H]2N2C(=O)N(c3cccc(F)c3)C(=O)[C@@]12C	99.0	·	7.4	-8.4	-15.2	-4.5	·
CCOC(=O)[C@@H]1[C@H]2COc3cc(OC)ccc3[C@H]2N2C(=O)N(c3cccc(F)c3)C(=O)[C@@]12C	73.0*	·	0.4	-5.3	-6.3	-5.3	99.0
Cc1ccc(S(=O)(=O)N[C@@H]2CC[C@H](CCNC(=O)C3CC3)O[C@H]2CO)cc1	·	·	·	·	-0.6	·	·
C[C@@H]1CN([C@@H](C)CO)S(=O)(=O)c2ccc(/C=C/c3ccccc3)cc2O[C@H]1CN(C)C(=O)c1ccc2c(c1)OCO2	·	·	·	·	-10.6	·	·
CCCSc1nc2sc3c(c2c(=O)[nH]1)CC(C)(CC)OC3 (stereo not drawn)	96.0	-0.8	-4.5	-0.1	-6.1	-6.9	·
CCSc1nc2sc3c(c2c(=O)[nH]1)CC(C)(CC)OC3 (stereo not drawn)	61.0*	-18.4	-12.4	-10.0	-7.3	-2.4	97.0
COC(=O)C[C@@H]1C[C@@H]2c3cc(NS(=O)(=O)c4ccc(OC)cc4)ccc3O[C@@H]2[C@H](CO)O1	·	·	·	·	-16.3	·	·
